According to patent US20260077065A1, “Compositions and Methods for Assessing Kinase Activity” (The Board of Trustees of the Leland Stanford Junior …, priority 2022, published 2026):

Test system: Akt
Settings: 3 hours after administration; CFz

Question: How did the “higher response of Akt oKiMBI mice compared to oKiMBImut mice” value turn out when CC(C)NC[C@@H](C(=O)N1CCN(c2ncnc3c2[C@H](C)C[C@H]3O)CC1)c1ccc(Cl)cc1 [GDC-0068, ipatasertib] was run?
Answer: ~130%
